Legend:
[1] = test system: Abeta oligomer-induced membrane trafficking deficits; assay: Membrane trafficking/exocytosis (MTT) assay in mature primary hippocampal neurons; type: cell-based, rat; details: 20 uM versus 0 uM of enantiomer
Text: The present exocytosis assay was adapted for use with mature primary neuronal cultures grown for 3 weeks in vitro. See WO/2011/106785, incorporated by reference in its entirety. Abeta oligomers cause a dose-dependent decrease in the amount of intracellular vesicles (puncta) filled with reduced purple formazan as measured via image processing using a Cellomics VTI automated microscopy system. Compare for example FIG. 1A (a photomicrograph for a cultured neuronal cell exposed to vehicle alone showing vesicles filled with formazan) with FIG. 1B (a photomicrograph of a neuronal cell exposed to vehicle plus Abeta oligomer showing considerably fewer vesicles filled with formazan and instead exocytosed formazan which when encountering the extracellular environment precipitates into crystals). Increasing the amount of Abeta oligomers eventually results in overt toxicity. Thus, the concentration of neuroactive Abeta oligomers used in the assay is much lower than that causing cell death. The inventors confirmed that the assay is operative by showing that the effects of Abeta oligomer are blocked upon addition of anti-Abeta antibody but antibody alone has no effect on its own (data not shown). […]
[…] Exocytosis was assessed by automated microscopy and image processing to quantify the amount of endocytosed and exocytosed formazan. […]

[2] = test system: Abeta oligomer-induced memory deficits in wt C57BL/6 mice; assay: Contextual fear conditioning after intrahippocampal Abeta oligomer injection; type: in vivo, mouse; details: Table 10A
Procedure: Abeta oligomers (single 200 nanoMolar intrahippocampal injection) produced significant deficits in memory formation in 3-4 month old male wt C57BL/6 mice (N=16) compared to vehicle (N=18).
Several pharmaceutical companies use this same model in their discovery efforts. Contextual fear conditioning is an accepted model of associative memory formation which correlates to human cognitive function and specifically the creation of new (Delgado '06). Abeta oligomers are injected into the hippocampus of wild-type animals immediately before conditioning training and memory is assessed via freezing behavior after 24 hours. Details are provided in Example 9. […] This model system was chosen because intrahippocampal administration of oligomers allows rapid comparative assessment of compound activity and off-target toxicity. The results are shown graphically in FIG. 4.
Compound II was tested in an animal model of a memory-dependent behavioral task known as fear conditioning. The study protocol was designed based on published protocols (See e.g. Puzzo D, Privitera L, Leznik E, Fà M, Staniszewski A, Palmeri A, Arancio O. Picomolar amyloid-beta positively modulates synaptic plasticity and memory in hippocampus. J. Neurosci. 2008 Dec. 31; 28(53):14537-45.). The formation of contextual memories is dependent upon the integrity of medial temporal lobe structures such as the hippocampus. […]

| Structure (SMILES) | Curve shift (fold) [1] | Behavioral efficiency [2] |
| --- | --- | --- |
| COc1cc(CCC(C)NCc2ccc(C(F)(F)F)cc2)ccc1O (single isomer, unassigned; (-)) [(−) enantiomer of Cpd II] | 1.22 fold |  |
| COc1cc(CCC(C)NCc2ccc(C(F)(F)F)cc2)ccc1O (single isomer, unassigned; (+)) [(+) enantiomer of Cpd II] | 2.86 fold |  |
| COc1cc(CCC(C)NCc2ccc(C(F)(F)F)cc2)ccc1O (stereo not drawn) [Compound II] |  | Yes |

Reference: patent publication US20170197977A9, “COMPOSITIONS AND METHODS FOR TREATING NEURODEGENERATIVE DISEASE” (COGNITION THERAPEUTICS, INC., priority 2011, published 2017)
